Counter-ions that a name gives are not always drawn.
Test: Qualitative solubility of salt forms in solvent systems (appearance at attempted concentration)
Type: physicochemical

For C=C(C)[C@@H]1CC[C@]2(C(=O)O)CC[C@]3(C)[C@H](CC[C@@H]4[C@@]5(C)CC[C@H](OC(=O)CC(C)(C)C(=O)O)C(C)(C)[C@@H]5CC[C@]43C)[C@@H]12 [DSB-(NmG)2, di-(N-methyl-D-glucamine) salt of 3-O-(3′,3′-dimethylsuccinyl) betulinic acid], the Appearance (Captex 200 81%, Vitamin E TPGS 15%, DMA 4%, attempted 25.5 mg/mL, 40-45° C.) was “Solution cloudy, some”, the Appearance (Captex 200 82%, Vitamin E TPGS 16%, DMA 2%, attempted 24.5 mg/g, 40-45° C.) was “Solution cloudy, some” and the Appearance (Captex 200 100%, attempted 24.7 mg/g) was “Solution cloudy”. The Appearance (Hydroxypropyl-β-cyclodextrin 10% (in water), attempted 50.0 mg/mL) was “clear”, the Appearance (Hydroxypropyl-β-cyclodextrin 10% (in water), attempted 50.0 mg/mL, listed as DSB—(NmG)2) was “Solution clear, but foam” and the Appearance (Water 56%, PEG 400 40%, Propylene Glycol 4%, attempted 50.9 mg/mL) was “apparently undissolved”. For the same compound, the Appearance (Water 67%, PEG 400 29%, Ethanol 4%, attempted 50.8 mg/mL) was “Solution clear, initially”, the Appearance (Water 75%, PEG 400 11%, Vitamin E TPGS 10%, Ethanol 4%, attempted 50.8 mg/mL, 40-45° C.) was “Solution clear, very” and the Appearance (Water 75%, PEG 400 12%, Vitamin E TPGS 10%, Ethanol 3%, attempted 50.1 mg/mL, 40-45° C.) was “Solution clear, very”. For the same compound, the Appearance (Water 75%, PEG 400 13%, Vitamin E TPGS 10%, Ethanol 2%, attempted 50.9 mg/mL, 40-45° C.) was “Undissolved drug, very”, the Appearance (Water 78%, PEG 400 18%, Ethanol 4%, attempted 51.2 mg/mL) was “Solution clear, initially” and the Appearance (Water 83%, PEG 400 7%, Propylene Glycol 6%, Ethanol 4%, attempted 51.7 mg/mL) was “Solution clear, initially”. For the same compound, the Appearance (Water 84%, PEG 400 10%, Ethanol 4%, Vitamin E TPGS 2%, attempted 40.4 mg/g, 40-45° C.) was “dissolved, but solution”, the Appearance (Water 84%, PEG 400 11%, Ethanol 4%, Simethicone Emulsion 1%, attempted 50.5 mg/mL) was “Solution cloudy, some” and the Appearance (Water 86%, PEG 400 10%, Ethanol 4%, attempted 67.3 mg/mL) was “Solution clear”. The Appearance (Water 89%, PEG 400 7%, Ethanol 4%, attempted 50.1 mg/mL) was “Solution clear, initially”, the Appearance (Water 96%, DMA 4%, attempted 52.2 mg/mL) was “Solutions clears with” and the Appearance (Water 96%, DMA 4%, attempted 71.2 mg/mL) was “Solution cloudy”. The Appearance (Water 96%, Ethanol 4%, attempted 50.1 mg/mL) was “Solution clear, initially” and the Appearance (Water 100%, attempted 2.4 mg/mL) was “Solution cloudy”.
